What all share (format): cell-based
The test system of one assay is Calu-6. The assay is described as follows: Cell proliferation-inhibiting activity (ATP in viable cells, CellTiter-Glo), Calu-6. The conditions noted are these: Homo sapiens, Calu-6, 96 h, read-out: Calu-6 IC50.
The test system of the next assay is A549. The assay is described as follows: Cell proliferation-inhibiting activity (ATP in viable cells, CellTiter-Glo), A549. The conditions noted are these: Homo sapiens, A549, 96 h, read-out: A549 IC50. (In general: In ATP-based viability assays light output follows the ATP content of the culture.)
In the next assay the test system is NCI-H2122. The assay is described as follows: Cell proliferation-inhibiting activity (ATP in viable cells, CellTiter-Glo), NCI-H2122. The conditions noted are these: Homo sapiens, NCI-H2122, 96 h, read-out: NCI-H2122 IC50.

A word on the IC50: it is the concentration that gives 50% inhibition.

Take `O=C(NOC[C@H](O)CO)c1ccc(F)c(F)c1Nc1ccc(I)cc1F` [Ref-1, N-[(2R)-2,3-Dihydroxypropoxy]-3,4-difluoro-2-(2-fluoro-4-iodoanilino)benzamide, reference compound]: the IC50 was determined as 91 nM with Calu-6, 7 nM in the assay on A549 and 7 nM in the assay with NCI-H2122.

The values are drawn from patent publication EP4725941A1, “ARYLAMIDE DERIVATIVE HAVING ANTITUMOR ACTIVITY” (priority 2020, dated 2021).
